Data taken from publication PMC6148290, “Endogenous metabolites of vitamin E limit inflammation by targeting 5-lipoxygenase” (Nature Communications, 2018).

Target: T1, human microsomal prostaglandin E2 synthase (mPGES)-1 (Homo sapiens, UniProt O14684)
T1 sequence (O14684 1-152): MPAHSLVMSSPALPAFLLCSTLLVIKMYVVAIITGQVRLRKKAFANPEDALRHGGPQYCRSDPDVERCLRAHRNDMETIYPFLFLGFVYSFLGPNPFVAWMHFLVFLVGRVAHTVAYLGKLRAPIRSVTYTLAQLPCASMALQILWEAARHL
Assay: mPGES-1 activity in microsomal preparations of IL-1β-treated A549 cells
Conditions: 10 µM; reference inhibitor

CC(C)c1ccc2c(c1)c(SC(C)(C)C)c(CC(C)(C)C(=O)O)n2Cc1ccc(Cl)cc1 [MK-886, reference compound]
suppression of PGE2 formation: 78.0 ± 2.5%
